Calls of active or inactive are those of the source. The calls are words filed in the database; no cut-off is given here.
Tests used:
Type in all cases: functional, cell-based
C3H 10T1/2 [1] = test: Inhibition of Hedgehog-signalling dependent purmorphamine induced osteoblast differentiation in mouse C3H 10T1/2 cells assessed as reduction in ALP expression at 0.01 to 100 uM incubated for 96 hrs by CDP-Star luminogenic substrate based assay; conditions: dose 0.01-100 µM
C3H 10T1/2 [2] = test: Downregulation of purmorphamine-induced Ptch2 mRNA expression in mouse C3H 10T1/2 cells at 1 uM measured after 48 hrs by RT-qPCR analysis
C3H 10T1/2 [3] = test: Inhibition of AhR mRNA expression in purmorphamine treated mouse C3H 10T1/2 cells at 1 uM incubated for 48 to 96 hrs by RT-qPCR analysis; conditions: time 48-96 hrs

Row | Compound | inhibition (C3H 10T1/2 [1]) | Activity (C3H 10T1/2 [2]) | inhibition (C3H 10T1/2 [3])
1 | CC(C)c1c(O)cc(/C=C/c2ccccc2)cc1O | Active | – | –
2 | Cc1csc(NC(=O)C(C(=O)OC(C)C)=C2SCS2)n1 | Active | – | –
3 | c1ccc2c(c1)cc1ccc3cccc4ccc2c1c34 | Active | – | –
4 | Cc1ccccc1/N=N/c1ccc(NC(=O)c2ccnn2C)c(C)c1 | Active | – | –
5 | O=Cc1c2[nH]c3ccccc3c2cc2[nH]c3ccccc3c12 | Active | Active | –
6 | Clc1cc2c(cc1Cl)Oc1cc(Cl)c(Cl)cc1O2 | Active | – | –
7 | CS(=O)(=O)c1ccc(C(=O)Nc2ccc(Cl)c(-c3ccccn3)c2)c(Cl)c1 | – | – | Active
